Consider 48 compounds from PubChem BioAssay AID1242 (PCMD, 2008).

Only a part is listed here, and it is no random draw. Calls of active or inactive are those of the source.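 The calls were made as follows: active = inhibition above 30.3% in the primary screen of four-compound pools, then above 30% when the compound was retested; inconclusive = passed the primary limit but could not be retested; inactive = the rest.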

By inhibition is commonly meant the relative decrease from the control value, in per cent.

The assay can be described thus: Candida albicans biofilm persister killing – 4-compound mixtures, primary screen (AID 1242).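 Also: compounds exposed to preformed 24 h biofilms for 48 h; 0% = untreated biofilm control and 100% = clotrimazole plus chlorhexidine kill blank.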 As to conditions: C. albicans biofilm persisters + clotrimazole, fluorescence viability; primary screen in compound mixtures of four per well; at 7.6 µM; stronger effect = higher value.
For `CP(=O)(Nc1ccc(SC(F)(F)F)cc1)Oc1ccc(Cl)cc1` (stereo not drawn), the inhibition is inactive: 18.1%.
Under `Cc1cc(C)cc(OP(C)(=O)Nc2ccc(SC(F)(F)F)cc2)c1` (stereo not drawn) stands inactive: 5.76%; under `CCc1ccc(OP(C)(=O)N2CCN(c3ccc([N+](=O)[O-])cc3)CC2)cc1` (stereo not drawn), inactive: 23.4%.
On to `CCOC(=O)c1ccc(NC(=O)C(C)(CCl)SC)cc1` (stereo not drawn), for which the inhibition is inactive: 12.1%.
Under `CCOC(=O)c1ccc(NP(C)(=O)Oc2ccc(OC)cc2)cc1` (stereo not drawn) stands inactive: -0.06%.
Take `CCC(C)N(CC(C)C)C(=S)SC(NC(C)=O)C(Cl)(Cl)Cl` (stereo not drawn): the inhibition is inactive: 7.55%.
As to `CCOC(=O)Nc1ccc([As](=O)(O)O)c(O)c1`, the inhibition is inactive: 18.5%.
The result for `Cc1cc(SC(NC(=O)c2ccccc2)C(Cl)(Cl)Cl)nc(C(C)C)n1` (stereo not drawn) reads inactive: 2.77%; that for `CCOC(=O)Nc1cccc([As](=O)(O)O)c1`, inactive: 21%.
As for `O=[N+]([O-])c1ccc(Nc2ccc(Oc3ccc([N+](=O)[O-])cc3[N+](=O)[O-])cc2)c([N+](=O)[O-])c1`, the inhibition is inactive: 4.35%.
The result for `CP(=O)(Nc1ccccc1Br)Oc1ccccc1` (stereo not drawn) reads inactive: 20.9%; that for `COc1ccccc1OP(C)(=O)Nc1ccccc1` (stereo not drawn), inactive: 12.8%.
Under `O=P(Nc1ccccn1)(c1cccc2ccccc12)c1cccc2ccccc12` stands inactive: -17.7%.
The result for `Cc1cc(SC(NC=O)C(Cl)(Cl)Cl)ncn1` (stereo not drawn) reads inactive: 19%; that for `COc1cc(C2NCCC3(OCCO3)C2(C)C)cc(OC)c1OC.O=[N+]([O-])c1cc([N+](=O)[O-])c(O)c([N+](=O)[O-])c1` (stereo not drawn), inactive: 12.3%.
For the compound `CC1CCC(C(C)C)C(OP(=O)(Nc2ccccn2)c2ccccc2)C1` (stereo not drawn), the inhibition was inactive: 4.27%.
The result for `O=C(/C=C/c1ccccc1)OC1CN2CCC1CC2` (stereo not drawn) reads inactive: 17%; that for `CCOC(=O)C(CC)C1=NC(C)(C)Cc2ccccc21.O=[N+]([O-])c1cc([N+](=O)[O-])c(O)c([N+](=O)[O-])c1` (stereo not drawn), inactive: 24.4%.
Under `CN(C)C1(CNC(=O)c2ccc(S(C)(=O)=O)cc2)CCCCC1` stands inactive: 1.82%; under `O=[N+]([O-])c1cc([N+](=O)[O-])c(Nc2nnnn2CCO)c([N+](=O)[O-])c1`, inactive: 20.2%; under `CN1CCCCC1COC(=O)C1(O)c2ccccc2CCc2ccccc21` (stereo not drawn), inactive: 5%.
Under `O=[As](O)(c1cccs1)c1cccs1` stands inactive: 18.8%.
Take `CP(=O)(Nc1ccc(SC(F)(F)F)cc1)Oc1ccccc1` (stereo not drawn): the inhibition was inactive: 10.4%.
Under `Nc1cccc([As](=O)(O)c2ccccc2)c1` stands inactive: 10.3%.
For `CCOP(=O)(Nc1ccc(C)cn1)OCC`, the inhibition is inactive: 23.6%.
Under `O=[N+]([O-])c1cc([N+](=O)[O-])c(-n2nnc3ccccc32)c([N+](=O)[O-])c1` stands inactive: 5.12%.
For `CC(C)(C)C(=O)NC(Sc1ncccn1)C(Cl)(Cl)Cl` (stereo not drawn), the inhibition was inactive: 28.4%.
Consider `O=[As](O)(c1ccccc1Br)c1ccccc1Br`, for which the inhibition was inactive: 19.6%.
For `CC(C)/C=N\N=C(\N)N[N+](=O)[O-]`, the inhibition was inactive: 0.82%.
The result for `COc1ccccc1OP(C)(=O)Nc1cccc(Br)c1` (stereo not drawn) reads inactive: 14.8%; that for `O=[As](O)(O)c1cccnc1`, inactive: 20%.
Turning to `COc1cc(C(=O)NCC2(N3CCOCC3)CCCCC2)cc(Cl)c1OC(C)C`, the inhibition was inactive: 3.64%.
Under `O=C(OC1CN2CCC1CC2)c1ccc(Cl)cc1` (stereo not drawn) stands inactive: 7.43%; under `CCOC(=O)c1ccc(NP(C)(=O)Oc2cc(C)cc(C)c2)cc1` (stereo not drawn), inactive: 13%.
Under `O=[As](O)(c1cccc(O)c1)c1cccc(O)c1` stands inactive: 23.9%.
Under `CCCOP(=S)(Nc1nc(N)cc(=O)[nH]1)OCCC` stands inactive: 27.2%; under `Cc1ccc(NCCc2c([N+](=O)[O-])cc([N+](=O)[O-])cc2[N+](=O)[O-])cc1`, inactive: 5.9%.
Take `Nc1cccc2c([As](=O)(O)O)cccc12`: the inhibition was inactive: 17.9%.
On to `CP(=O)(Nc1cccc(Br)c1)Oc1ccccc1` (stereo not drawn), for which the inhibition is inactive: 12.1%.
Under `CCOP(=O)(Nc1cccc2ccccc12)OCC` stands inactive: 20.4%.
Turning to `CS(=O)(=O)c1cc([N+](=O)[O-])c2no[n+]([O-])c2c1`, the inhibition was inactive: 18.6%.
Under `O=P(Nc1nccs1)(Oc1ccccc1)Oc1ccccc1` stands inactive: 13%.
The result for `O=C(O)c1cccc(Nc2c([N+](=O)[O-])cc([N+](=O)[O-])cc2[N+](=O)[O-])c1` reads inactive: -4.57%; that for `Nc1ccccc1[As](=O)(O)c1ccccc1`, inactive: 11.6%.
Take `O=C(O)COc1ccc([As](=O)(O)O)cc1[N+](=O)[O-]`: the inhibition is inactive: 0.67%.
The result for `NC(=O)Nc1ccc([As](=O)(O)O)cc1` reads inactive: 12.4%; that for `CC1=NCCc2c1[nH]c1ccccc21.O=[N+]([O-])c1cc([N+](=O)[O-])c(O)c([N+](=O)[O-])c1`, inactive: 5.62%.
As for `CN(C(=O)Cc1ccccc1)[C@@H]1CC[C@]2(CCCO2)C[C@H]1N1CCCC1`, the inhibition was inactive: 10.8%.
